# The list shows a part of the results, in another mix than the full data. Activity calls are given as the source filed them. Rule as the data show it: active = inhibition above about 22% (passing the limit was not always enough); inconclusive = no clear call, values can overlap the other calls.
# Molecular target: Cathepsin B (Homo sapiens) (UniProt P07858)
# Test: human cathepsin B blockade, pooled library – biochemical, compound mixtures, AMC fluorescence, primary screen (AID 488);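 also: 0% = enzyme without compound and 100% = no enzyme blank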
# Settings: Purified cathepsin B, AMC dipeptide fluorescence, stronger effect = higher value,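 ten-compound pools at 5 µM per compound and 50 µM total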
row,Structure (SMILES),inhibition
1,COC(=O)c1cc2c(s1)N=C(c1ccccc1)N(C)P2(=O)N1CCOCC1 (stereo not given),inactive: 7.29%
2,O=P1(Nc2nc3ccc(Cl)cc3s2)COc2ccccc2O1 (stereo not given),inactive: -0.885%
3,c1nnnn1CCn1cnnn1,inactive: -0.78%
4,O=P(Nc1nccs1)(c1ccccc1)c1ccccc1,inactive: 0.37%
5,O=C(OC1CN2CCC1CC2)c1cccc(Cl)c1 (stereo not given),inactive: -1.05%
6,CCc1nc2c(n1)c1c(non1O)c1c2no[n+]1[O-],inactive: 0.255%
7,Cc1c2non([O-])c-2c(C)[n+](=O)[n+]1[O-],inactive: 1.47%
8,O=C(OC1CN2CCC1CC2)C12CC3CC(CC(C3)C1)C2 (stereo not given),inactive: -8.6%
9,O=C(COc1ccccc1)OC1CN2CCC1CC2 (stereo not given),inactive: 4.78%
10,COP1(=S)c2c(C)nn(CCC#N)c2N=C(c2ccc(F)cc2)N1C (stereo not given),inactive: 2.79%
11,Cc1ccc(OCC(=O)OC2CN3CCC2CC3)cc1 (stereo not given),inactive: 0.105%
12,O=P1(Nc2ccc(Br)cn2)COc2ccccc2OC1,inactive: 0.47%
13,O=P1(Nc2ncccn2)COc2ccccc2OC1,inactive: 4.75%
14,Cc1nn(-c2ccccc2)c2c1P(=O)(N1CCOCC1)N(C)C(c1ccccc1)=N2 (stereo not given),inactive: 4.12%
15,Clc1n[nH]nc1-c1nn[nH][15n]1,inactive: 3.38%
16,O=P1(Nc2ccccn2)COc2ccccc2OC1,inactive: 3.88%
17,Cc1cccc(OCC(=O)OC2CN3CCC2CC3)c1 (stereo not given),inactive: -5.18%
18,CCOP1(=S)c2c(C)nn(CCC#N)c2N=C(c2ccc(F)cc2)N1C (stereo not given),inactive: -1.15%
19,O=P(Nc1nccs1)(c1ccccc1)c1nc2ccccc2s1 (stereo not given),inactive: 6.27%
20,CCOP1(=S)c2c(C)nn(CCC#N)c2N=C(c2ccccc2F)N1C (stereo not given),inactive: 0.63%
